From ChEMBL document CHEMBL1944561, “Discovery and SAR exploration of a novel series of imidazo[4,5-b]pyrazin-2-ones as potent and selective mTOR kinase inhibitors” (Bioorg Med Chem Lett, 2011)

Test: Selectivity ratio of IC50 for GSK3alpha to IC50 for mTOR

Ratio IC50: > 20
Structure (SMILES): CC(C)(O)c1ccc(-c2cnc3[nH]c(=O)n(CC4CCCCC4)c3n2)cc1
